Target: rat TAAR1 (Rattus norvegicus (Rat), UniProt Q923Y9)
Assay: Radioligand binding assay on rat TAAR1
Settings: read-out: Ki (μM) rat; rat TAAR1, membranes of HEK-293 cells, second value of the cell pair mouse/rat; tested form: HCl

Sequences of proteins named here, by UniProt entry; tags and fusion partners are left off.
UniProt Q923Y9, whole entry: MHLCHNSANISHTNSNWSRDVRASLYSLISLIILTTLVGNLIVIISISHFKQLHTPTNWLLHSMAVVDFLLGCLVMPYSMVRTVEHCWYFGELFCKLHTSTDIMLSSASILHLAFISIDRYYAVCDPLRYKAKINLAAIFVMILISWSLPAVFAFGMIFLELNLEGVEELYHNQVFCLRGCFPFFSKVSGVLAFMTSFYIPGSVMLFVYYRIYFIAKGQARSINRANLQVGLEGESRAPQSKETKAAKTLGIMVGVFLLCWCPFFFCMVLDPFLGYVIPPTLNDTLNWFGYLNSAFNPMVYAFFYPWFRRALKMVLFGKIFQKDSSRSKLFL

**Q.** Clc1cccc(-c2cc(-c3ccc([C@@H]4CNCCO4)cc3)n[nH]2)c1 was tested. Which Ki did it give?
**A.** 0.002 µM

Reference: patent US9181230B2, “Morpholine compounds and uses thereof” (Hoffmann-La Roche Inc., priority 2013, dated 2015)
